The test deals with T1, GCase (Homo sapiens, UniProt P04062).
T1 construct: High content imaging of SK-N-SH cells incubated for 2 h; endogenous in cells; host or cells: SK-N-SH
T1 sequence (P04062 40-536): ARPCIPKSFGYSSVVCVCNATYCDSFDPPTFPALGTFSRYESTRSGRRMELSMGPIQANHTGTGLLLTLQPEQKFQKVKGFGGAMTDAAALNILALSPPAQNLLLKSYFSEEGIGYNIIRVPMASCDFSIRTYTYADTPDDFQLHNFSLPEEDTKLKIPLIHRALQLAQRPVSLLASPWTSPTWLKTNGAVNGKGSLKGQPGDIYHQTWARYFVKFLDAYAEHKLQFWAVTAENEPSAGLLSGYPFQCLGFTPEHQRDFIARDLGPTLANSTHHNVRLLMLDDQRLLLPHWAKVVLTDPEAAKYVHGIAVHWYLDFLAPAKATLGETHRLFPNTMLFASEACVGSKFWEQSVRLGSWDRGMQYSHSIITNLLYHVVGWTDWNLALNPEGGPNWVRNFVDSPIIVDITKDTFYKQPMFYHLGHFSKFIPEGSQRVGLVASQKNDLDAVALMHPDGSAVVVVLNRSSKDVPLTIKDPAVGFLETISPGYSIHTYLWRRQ
Nature of the test: IC50 of GCase inhibitor in fixed SK-N-SH cells read with substrate 4. The test is classed as cell-based. Particulars: 10 μM substrate 4, fixed SK-N-SH cells; compared with live cells.

`O[C@H]1[C@H](O)CNC[C@@H]1C(F)F` [AT3375, (3R,4R,5S)-5-(difluoromethyl)piperidine-3,4-diol]: the “IC50 value in fixed cells” value was “in good agreement with the value measured using substrate 4 in live SK-N-SH cells”.

These data come from patent US20250130225A1, “SUBSTRATES FOR IMAGING GLUCOCEREBROSIDASE ACTIVITY” (SIMON FRASER UNIVERSITY, priority 2021, published 2025).
